Test [1] has as its system DNA. In words: Induction of ROS-mediated DNA (unknown origin) ICL formation by measuring rate constant preincubated with compounds followed by H2O2 addition. It counts as functional.
For test [2], the system named is DNA. Description: Induction of ROS-mediated DNA (unknown origin) assessed as efficiency of ICL formation preincubated with compounds followed by H2O2 addition relative to control. It counts as functional.

Results on one molecule are retold here after ChEMBL document CHEMBL5226283, “Reactive Oxygen Species (ROS)-Responsive Prodrugs, Probes, and Theranostic Prodrugs: Applications in the ROS-Related Diseases” (J Med Chem, 2021).

With `C[N+](CCCl)(CCCl)Cc1ccc(B(O)O)cc1`, the K in test [1] is 4.7 10^-5/s. The Activity in test [2] is 43%.
